The chains behind the UniProt entries cited, without tags or fusion partners. Where a name states a change or a piece, a line headed by the entry shows the natural chain unless it says otherwise. Residues count along the entry.
UniProt Q92630, 222-535 limits assumed: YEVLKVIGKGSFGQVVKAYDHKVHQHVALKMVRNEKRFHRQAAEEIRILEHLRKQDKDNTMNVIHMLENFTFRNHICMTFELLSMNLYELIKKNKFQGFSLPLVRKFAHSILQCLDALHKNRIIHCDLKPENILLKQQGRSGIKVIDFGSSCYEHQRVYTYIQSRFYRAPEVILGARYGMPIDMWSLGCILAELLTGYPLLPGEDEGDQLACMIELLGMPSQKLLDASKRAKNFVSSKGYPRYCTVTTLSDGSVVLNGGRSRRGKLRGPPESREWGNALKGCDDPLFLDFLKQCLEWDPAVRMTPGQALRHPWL
UniProt Q9H2X6, 199-527 limits assumed: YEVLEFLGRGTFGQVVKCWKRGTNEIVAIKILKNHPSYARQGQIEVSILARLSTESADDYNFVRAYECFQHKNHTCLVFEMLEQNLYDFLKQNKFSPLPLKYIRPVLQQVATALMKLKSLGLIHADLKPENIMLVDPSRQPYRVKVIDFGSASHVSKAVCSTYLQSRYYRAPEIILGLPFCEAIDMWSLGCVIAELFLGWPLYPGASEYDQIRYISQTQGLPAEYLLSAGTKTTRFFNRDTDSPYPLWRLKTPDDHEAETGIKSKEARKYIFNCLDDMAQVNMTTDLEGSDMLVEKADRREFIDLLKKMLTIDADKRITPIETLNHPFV
UniProt Q5VT25, 77-343 limits assumed: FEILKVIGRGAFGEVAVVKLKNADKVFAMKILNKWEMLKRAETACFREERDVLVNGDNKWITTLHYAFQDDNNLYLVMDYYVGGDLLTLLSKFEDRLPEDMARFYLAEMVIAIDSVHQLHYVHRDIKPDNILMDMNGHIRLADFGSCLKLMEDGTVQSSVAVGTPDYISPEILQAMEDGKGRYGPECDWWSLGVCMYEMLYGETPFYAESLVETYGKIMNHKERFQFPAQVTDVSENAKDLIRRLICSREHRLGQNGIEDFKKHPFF
UniProt P11362, 456-767 limits assumed: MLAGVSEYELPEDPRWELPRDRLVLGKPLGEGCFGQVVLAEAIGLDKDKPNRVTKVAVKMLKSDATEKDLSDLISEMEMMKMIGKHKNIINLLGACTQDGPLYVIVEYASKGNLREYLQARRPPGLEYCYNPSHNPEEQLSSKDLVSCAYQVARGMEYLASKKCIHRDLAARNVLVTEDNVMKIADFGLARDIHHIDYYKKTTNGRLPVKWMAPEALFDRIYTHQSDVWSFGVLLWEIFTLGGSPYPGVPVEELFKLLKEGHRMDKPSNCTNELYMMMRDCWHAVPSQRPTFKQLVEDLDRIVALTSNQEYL
UniProt Q8TD08, 13-304 limits assumed: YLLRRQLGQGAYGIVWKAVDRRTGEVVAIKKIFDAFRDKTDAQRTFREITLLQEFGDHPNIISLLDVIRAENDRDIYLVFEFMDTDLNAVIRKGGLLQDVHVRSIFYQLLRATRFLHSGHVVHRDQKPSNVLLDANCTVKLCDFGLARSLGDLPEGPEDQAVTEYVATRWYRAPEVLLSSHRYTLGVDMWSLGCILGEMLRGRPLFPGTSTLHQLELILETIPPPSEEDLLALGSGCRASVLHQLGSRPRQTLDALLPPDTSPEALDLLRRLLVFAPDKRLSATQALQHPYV
UniProt O00444, 2-275 limits assumed: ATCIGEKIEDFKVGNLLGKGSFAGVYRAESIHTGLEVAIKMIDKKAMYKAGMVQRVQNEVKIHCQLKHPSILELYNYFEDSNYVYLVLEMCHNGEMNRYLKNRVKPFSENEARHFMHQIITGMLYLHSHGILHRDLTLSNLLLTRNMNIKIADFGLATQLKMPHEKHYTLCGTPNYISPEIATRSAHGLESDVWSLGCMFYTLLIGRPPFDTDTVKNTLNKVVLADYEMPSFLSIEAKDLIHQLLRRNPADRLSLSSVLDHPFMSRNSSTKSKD
UniProt Q9UPE1, 79-565 limits assumed: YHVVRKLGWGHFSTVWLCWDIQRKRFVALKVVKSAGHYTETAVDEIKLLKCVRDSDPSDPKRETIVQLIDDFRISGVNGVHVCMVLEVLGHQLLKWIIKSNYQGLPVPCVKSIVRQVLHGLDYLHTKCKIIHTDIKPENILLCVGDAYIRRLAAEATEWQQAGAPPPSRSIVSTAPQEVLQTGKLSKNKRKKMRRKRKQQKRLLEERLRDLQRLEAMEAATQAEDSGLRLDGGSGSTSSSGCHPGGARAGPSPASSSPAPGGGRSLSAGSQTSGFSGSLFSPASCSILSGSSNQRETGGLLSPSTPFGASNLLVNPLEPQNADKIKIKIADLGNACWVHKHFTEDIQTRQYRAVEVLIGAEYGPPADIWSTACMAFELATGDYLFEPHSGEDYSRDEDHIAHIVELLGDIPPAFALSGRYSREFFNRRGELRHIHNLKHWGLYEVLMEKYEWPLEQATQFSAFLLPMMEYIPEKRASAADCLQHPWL
UniProt Q96GD4, 77-327 limits assumed: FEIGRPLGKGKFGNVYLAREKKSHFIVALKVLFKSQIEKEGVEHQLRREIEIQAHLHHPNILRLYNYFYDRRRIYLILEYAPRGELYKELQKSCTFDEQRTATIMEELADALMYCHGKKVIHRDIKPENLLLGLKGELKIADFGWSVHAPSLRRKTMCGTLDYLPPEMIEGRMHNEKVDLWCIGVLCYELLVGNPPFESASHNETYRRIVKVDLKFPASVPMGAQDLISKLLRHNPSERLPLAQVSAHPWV
UniProt P54753, 633-896 limits assumed: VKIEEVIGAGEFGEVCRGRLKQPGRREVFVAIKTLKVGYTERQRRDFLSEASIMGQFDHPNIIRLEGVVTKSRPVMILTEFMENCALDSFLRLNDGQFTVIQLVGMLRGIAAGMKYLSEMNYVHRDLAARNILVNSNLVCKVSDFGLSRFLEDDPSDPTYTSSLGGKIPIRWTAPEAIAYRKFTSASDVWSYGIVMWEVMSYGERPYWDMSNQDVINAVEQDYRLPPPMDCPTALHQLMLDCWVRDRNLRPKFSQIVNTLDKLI
UniProt O15164: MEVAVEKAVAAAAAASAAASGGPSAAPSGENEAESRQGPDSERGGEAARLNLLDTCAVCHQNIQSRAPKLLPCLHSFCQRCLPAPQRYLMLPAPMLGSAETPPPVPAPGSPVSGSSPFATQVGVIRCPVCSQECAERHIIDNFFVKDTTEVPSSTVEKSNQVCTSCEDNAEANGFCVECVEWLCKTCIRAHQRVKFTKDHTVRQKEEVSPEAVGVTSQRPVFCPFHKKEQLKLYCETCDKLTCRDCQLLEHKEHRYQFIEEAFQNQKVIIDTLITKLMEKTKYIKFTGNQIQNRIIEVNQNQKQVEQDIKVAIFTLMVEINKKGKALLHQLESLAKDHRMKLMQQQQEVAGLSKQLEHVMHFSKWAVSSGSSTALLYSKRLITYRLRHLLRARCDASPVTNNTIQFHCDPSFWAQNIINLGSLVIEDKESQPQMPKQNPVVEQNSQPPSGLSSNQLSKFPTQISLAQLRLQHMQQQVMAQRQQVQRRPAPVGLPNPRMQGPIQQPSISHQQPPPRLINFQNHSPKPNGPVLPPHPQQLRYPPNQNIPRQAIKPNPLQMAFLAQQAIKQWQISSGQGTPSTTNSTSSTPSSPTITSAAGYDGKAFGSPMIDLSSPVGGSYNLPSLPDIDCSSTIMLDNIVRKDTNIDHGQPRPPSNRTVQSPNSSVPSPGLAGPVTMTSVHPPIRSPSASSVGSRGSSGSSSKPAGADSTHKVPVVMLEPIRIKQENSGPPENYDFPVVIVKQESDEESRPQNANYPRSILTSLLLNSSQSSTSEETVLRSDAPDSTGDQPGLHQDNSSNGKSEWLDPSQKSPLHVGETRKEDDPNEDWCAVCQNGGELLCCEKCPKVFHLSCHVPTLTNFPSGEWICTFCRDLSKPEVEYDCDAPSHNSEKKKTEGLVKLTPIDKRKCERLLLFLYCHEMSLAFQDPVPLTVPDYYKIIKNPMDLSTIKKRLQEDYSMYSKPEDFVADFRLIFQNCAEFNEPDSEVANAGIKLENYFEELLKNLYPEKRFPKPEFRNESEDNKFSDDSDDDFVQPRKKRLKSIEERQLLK
UniProt Q9H4A3, 206-483 limits assumed: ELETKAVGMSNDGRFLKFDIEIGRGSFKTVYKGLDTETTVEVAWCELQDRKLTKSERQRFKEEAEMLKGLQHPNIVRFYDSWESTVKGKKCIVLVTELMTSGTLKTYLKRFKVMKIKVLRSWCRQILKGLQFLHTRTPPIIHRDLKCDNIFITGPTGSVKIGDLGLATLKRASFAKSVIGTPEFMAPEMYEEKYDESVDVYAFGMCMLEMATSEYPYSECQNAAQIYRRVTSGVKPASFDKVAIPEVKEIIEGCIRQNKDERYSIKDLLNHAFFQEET
UniProt P49761, 156-472 limits assumed: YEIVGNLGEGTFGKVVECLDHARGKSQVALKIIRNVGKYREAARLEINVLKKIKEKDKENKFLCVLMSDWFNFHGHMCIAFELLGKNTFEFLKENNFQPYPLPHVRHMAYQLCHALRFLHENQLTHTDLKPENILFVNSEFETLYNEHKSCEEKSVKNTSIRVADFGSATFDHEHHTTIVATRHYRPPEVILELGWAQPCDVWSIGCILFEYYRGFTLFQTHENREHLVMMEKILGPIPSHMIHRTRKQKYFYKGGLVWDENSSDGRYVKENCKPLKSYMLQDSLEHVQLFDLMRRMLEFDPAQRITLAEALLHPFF
UniProt O94768, 25-329 limits assumed: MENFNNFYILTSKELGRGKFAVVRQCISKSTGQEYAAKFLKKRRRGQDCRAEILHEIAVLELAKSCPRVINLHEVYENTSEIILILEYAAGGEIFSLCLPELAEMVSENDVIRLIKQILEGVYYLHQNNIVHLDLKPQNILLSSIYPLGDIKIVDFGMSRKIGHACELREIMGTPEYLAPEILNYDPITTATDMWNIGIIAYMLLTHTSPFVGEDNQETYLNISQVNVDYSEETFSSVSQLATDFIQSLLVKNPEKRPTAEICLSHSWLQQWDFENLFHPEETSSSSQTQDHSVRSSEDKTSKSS
UniProt P15056, 457-717 limits assumed: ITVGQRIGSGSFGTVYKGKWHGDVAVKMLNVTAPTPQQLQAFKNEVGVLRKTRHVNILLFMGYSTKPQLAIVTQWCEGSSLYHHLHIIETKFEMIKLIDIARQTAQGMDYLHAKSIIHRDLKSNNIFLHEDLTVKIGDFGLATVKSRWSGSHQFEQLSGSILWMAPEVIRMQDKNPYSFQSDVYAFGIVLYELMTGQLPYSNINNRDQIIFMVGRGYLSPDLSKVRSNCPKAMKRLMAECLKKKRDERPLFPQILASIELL
UniProt Q9P289, 1-300 limits assumed: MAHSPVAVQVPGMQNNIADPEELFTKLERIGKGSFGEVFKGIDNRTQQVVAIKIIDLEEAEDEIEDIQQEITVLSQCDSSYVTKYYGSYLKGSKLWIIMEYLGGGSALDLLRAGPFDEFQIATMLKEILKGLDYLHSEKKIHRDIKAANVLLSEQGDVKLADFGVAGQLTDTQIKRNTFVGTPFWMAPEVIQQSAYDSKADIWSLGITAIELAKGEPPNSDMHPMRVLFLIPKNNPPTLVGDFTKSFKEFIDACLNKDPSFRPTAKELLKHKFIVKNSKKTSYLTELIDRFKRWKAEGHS
UniProt P54764, 621-882 limits assumed: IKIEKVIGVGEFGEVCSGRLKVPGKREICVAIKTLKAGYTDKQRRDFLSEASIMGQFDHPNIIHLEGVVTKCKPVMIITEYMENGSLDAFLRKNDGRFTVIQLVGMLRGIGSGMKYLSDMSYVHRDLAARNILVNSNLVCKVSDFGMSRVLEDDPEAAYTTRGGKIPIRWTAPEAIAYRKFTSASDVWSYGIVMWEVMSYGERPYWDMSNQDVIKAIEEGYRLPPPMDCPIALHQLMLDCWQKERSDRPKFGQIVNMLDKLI
UniProt Q13557, 14-272 limits assumed: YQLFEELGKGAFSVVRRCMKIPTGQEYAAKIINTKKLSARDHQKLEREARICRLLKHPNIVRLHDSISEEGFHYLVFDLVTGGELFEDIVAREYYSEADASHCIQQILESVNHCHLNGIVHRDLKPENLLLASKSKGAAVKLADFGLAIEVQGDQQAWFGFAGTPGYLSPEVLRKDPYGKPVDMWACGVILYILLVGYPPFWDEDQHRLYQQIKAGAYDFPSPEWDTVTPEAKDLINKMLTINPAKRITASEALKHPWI
UniProt Q15418, 411-735 limits assumed: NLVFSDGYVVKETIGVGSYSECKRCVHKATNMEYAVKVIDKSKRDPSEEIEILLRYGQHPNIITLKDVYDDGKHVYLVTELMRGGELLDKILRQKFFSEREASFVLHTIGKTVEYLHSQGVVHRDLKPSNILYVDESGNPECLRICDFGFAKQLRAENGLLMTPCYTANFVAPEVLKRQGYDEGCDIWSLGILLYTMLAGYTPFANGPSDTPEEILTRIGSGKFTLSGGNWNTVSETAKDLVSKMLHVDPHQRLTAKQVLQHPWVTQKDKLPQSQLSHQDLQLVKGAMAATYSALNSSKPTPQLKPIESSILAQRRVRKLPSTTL

In publication PMC12678819, “Targeting bacterial kinases as a strategy to counteract antibiotic resistance” (2025):

Key:
[1] = Plasma stability assay, mouse; conditions: 1 μg∙mL-1
DYRK2 = DYRK2 (Homo sapiens, UniProt Q92630); experiment: DSF kinase panel; conditions: 10 μM
HIPK2 = HIPK2 (Homo sapiens, UniProt Q9H2X6); experiment: DSF kinase panel; conditions: 10 μM
MAP2K1 = MAP2K1 (Homo sapiens, UniProt Q02750); experiment: DSF kinase panel; conditions: 10 μM
PAK1 = PAK1 (Homo sapiens, UniProt Q13153); experiment: DSF kinase panel; conditions: 10 μM
MYT1 = MYT1 (Homo sapiens, UniProt Q99640); experiment: DSF kinase panel; conditions: 10 μM
JNK2 = JNK2 (Homo sapiens, UniProt P45984); experiment: DSF kinase panel; conditions: 10 μM
BIKE = BIKE (Homo sapiens, UniProt Q9NSY1); experiment: DSF kinase panel; conditions: 10 μM
DCAMKL1 = DCAMKL1 (Homo sapiens, UniProt O15075); experiment: DSF kinase panel; conditions: 10 μM
PHKg2 = PHKg2 (Homo sapiens, UniProt P15735); experiment: DSF kinase panel; conditions: 10 μM
MRCKa = MRCKa (Homo sapiens, UniProt Q5VT25); experiment: DSF kinase panel; conditions: 10 μM
MAP3K5 = MAP3K5 (Homo sapiens, UniProt Q99683); experiment: DSF kinase panel; conditions: 10 μM
ABL1 = ABL1 (Homo sapiens, UniProt P00519); experiment: DSF kinase panel; conditions: 10 μM
CDKL1 = CDKL1 (Homo sapiens, UniProt Q00532); experiment: DSF kinase panel; conditions: 10 μM
EPHA5 = EPHA5 (Homo sapiens, UniProt P54756); experiment: DSF kinase panel; conditions: 10 μM
FGFR1 = FGFR1 (Homo sapiens, UniProt P11362); experiment: DSF kinase panel; conditions: 10 μM
VRK1 = VRK1 (Homo sapiens, UniProt Q99986); experiment: DSF kinase panel; conditions: 10 μM
SLK = SLK (Homo sapiens, UniProt Q9H2G2); experiment: DSF kinase panel; conditions: 10 μM
DRAK1 = DRAK1 (Homo sapiens, UniProt Q9UEE5); experiment: DSF kinase panel; conditions: 10 μM
MAPK15 = MAPK15 (Homo sapiens, UniProt Q8TD08); experiment: DSF kinase panel; conditions: 10 μM
PLK4 = PLK4 (Homo sapiens, UniProt O00444); experiment: DSF kinase panel; conditions: 10 μM
MSSK1 = MSSK1 (Homo sapiens, UniProt Q9UPE1); experiment: DSF kinase panel; conditions: 10 μM
CHK2 = CHK2 (Homo sapiens, UniProt O96017); experiment: DSF kinase panel; conditions: 10 μM
AURKB = AURKB (Homo sapiens, UniProt Q96GD4); experiment: DSF kinase panel; conditions: 10 μM
EPHB3 = EPHB3 (Homo sapiens, UniProt P54753); experiment: DSF kinase panel; conditions: 10 μM
TIF1 = TIF1 (Homo sapiens, UniProt O15164); experiment: DSF kinase panel; conditions: 10 μM
CASK = CASK (Homo sapiens, UniProt O14936); experiment: DSF kinase panel; conditions: 10 μM
CAMK4 = CAMK4 (Homo sapiens, UniProt Q16566); experiment: DSF kinase panel; conditions: 10 μM
PIM3 = PIM3 (Homo sapiens, UniProt Q86V86); experiment: DSF kinase panel; conditions: 10 μM
NQO2 = NQO2 (Homo sapiens, UniProt P16083); experiment: DSF kinase panel; conditions: 10 μM
WNK1 = WNK1 (Homo sapiens, UniProt Q9H4A3); experiment: DSF kinase panel; conditions: 10 μM
CLK3 = CLK3 (Homo sapiens, UniProt P49761); experiment: DSF kinase panel; conditions: 10 μM
MARK3 = MARK3 (Homo sapiens, UniProt P27448); experiment: DSF kinase panel; conditions: 10 μM
DRAK2 = DRAK2 (Homo sapiens, UniProt O94768); experiment: DSF kinase panel; conditions: 10 μM
EPHB1 = EPHB1 (Homo sapiens, UniProt P54762); experiment: DSF kinase panel; conditions: 10 μM
BRAF = BRAF (Homo sapiens, UniProt P15056); experiment: DSF kinase panel; conditions: 10 μM
MAPKAPK2 = MAPKAPK2 (Homo sapiens, UniProt P49137); experiment: DSF kinase panel; conditions: 10 μM
MST4 = MST4 (Homo sapiens, UniProt Q9P289); experiment: DSF kinase panel; conditions: 10 μM
EPHA4 = EPHA4 (Homo sapiens, UniProt P54764); experiment: DSF kinase panel; conditions: 10 μM
CAMK2D = CAMK2D (Homo sapiens, UniProt Q13557); experiment: DSF kinase panel; conditions: 10 μM
RSK1_b = RSK1_b (Homo sapiens, UniProt Q15418); experiment: DSF kinase panel; conditions: 10 μM
CAMK1D = CAMK1D (Homo sapiens, UniProt Q8IU85); experiment: DSF kinase panel; conditions: 10 μM

## OCCCn1cc(-c2c(Cl)cnc3[nH]ccc23)nn1
[1]
  t1/2 mouse plasma: >4 h
DYRK2
  ΔTm DYRK2: 3.1 °C
HIPK2
  ΔTm HIPK2: 1.3 °C
MAP2K1
  ΔTm MAP2K1: 0.6 °C
PAK1
  ΔTm PAK1: -0.5 °C
MYT1
  ΔTm MYT1: -0.5 °C
JNK2
  ΔTm JNK2: 0.3 °C
BIKE
  ΔTm BIKE: 10.2 °C
DCAMKL1
  ΔTm DCAMKL1: 0.6 °C
PHKg2
  ΔTm PHKg2: 1.5 °C
MRCKa
  ΔTm MRCKa: 0.2 °C
MAP3K5
  ΔTm MAP3K5: 6.6 °C
ABL1
  ΔTm ABL1: 1.5 °C
CDKL1
  ΔTm CDKL1: 0.3 °C
EPHA5
  ΔTm EPHA5: -0.4 °C
FGFR1
  ΔTm FGFR1: 1.1 °C
VRK1
  ΔTm VRK1: 0.1 °C
SLK
  ΔTm SLK: -0.2 °C
DRAK1
  ΔTm DRAK1: 4.9 °C
MAPK15
  ΔTm MAPK15: 4.0 °C
PLK4
  ΔTm PLK4: 3.8 °C
MSSK1
  ΔTm MSSK1: -0.1 °C
CHK2
  ΔTm CHK2: 2.5 °C
AURKB
  ΔTm AURKB: 6.1 °C
EPHB3
  ΔTm EPHB3: 0.1 °C
TIF1
  ΔTm TIF1: -0.5 °C
CASK
  ΔTm CASK: 0.2 °C
CAMK4
  ΔTm CAMK4: 0.6 °C
PIM3
  ΔTm PIM3: 1.1 °C
NQO2
  ΔTm NQO2: -0.5 °C
WNK1
  ΔTm WNK1: -0.2 °C
CLK3
  ΔTm CLK3: 1.2 °C
MARK3
  ΔTm MARK3: 2.4 °C
DRAK2
  ΔTm DRAK2: 2.2 °C
EPHB1
  ΔTm EPHB1: 0.3 °C
BRAF
  ΔTm BRAF: 1.2 °C
MAPKAPK2
  ΔTm MAPKAPK2: 0.0 °C
MST4
  ΔTm MST4: -0.6 °C
EPHA4
  ΔTm EPHA4: 0.3 °C
CAMK2D
  ΔTm CAMK2D: -0.4 °C
RSK1_b
  ΔTm RSK1_b: 1.2 °C
CAMK1D
  ΔTm CAMK1D: 1.4 °C

## C[C@H](CO)Cn1cc(-c2c(Cl)cnc3[nH]ccc23)nn1
[1]
  t1/2 mouse plasma: > 4 h
DYRK2
  ΔTm DYRK2: 3.2 °C
HIPK2
  ΔTm HIPK2: 1.6 °C
MAP2K1
  ΔTm MAP2K1: 1.2 °C
PAK1
  ΔTm PAK1: -0.4 °C
MYT1
  ΔTm MYT1: -0.4 °C
JNK2
  ΔTm JNK2: 0.2 °C
BIKE
  ΔTm BIKE: 10.2 °C
DCAMKL1
  ΔTm DCAMKL1: 0.6 °C
PHKg2
  ΔTm PHKg2: 1.1 °C
MRCKa
  ΔTm MRCKa: 0.1 °C
MAP3K5
  ΔTm MAP3K5: 5.2 °C
ABL1
  ΔTm ABL1: 2.1 °C
CDKL1
  ΔTm CDKL1: 0.5 °C
EPHA5
  ΔTm EPHA5: -0.6 °C
FGFR1
  ΔTm FGFR1: 1.2 °C
VRK1
  ΔTm VRK1: -0.3 °C
SLK
  ΔTm SLK: 0.1 °C
DRAK1
  ΔTm DRAK1: 4.5 °C
MAPK15
  ΔTm MAPK15: 4.9 °C
PLK4
  ΔTm PLK4: 4.2 °C
MSSK1
  ΔTm MSSK1: 0.0 °C
CHK2
  ΔTm CHK2: 2.4 °C
AURKB
  ΔTm AURKB: 6.0 °C
EPHB3
  ΔTm EPHB3: -1.1 °C
TIF1
  ΔTm TIF1: -0.4 °C
CASK
  ΔTm CASK: -0.5 °C
CAMK4
  ΔTm CAMK4: 0.6 °C
PIM3
  ΔTm PIM3: 0.9 °C
NQO2
  ΔTm NQO2: -0.6 °C
WNK1
  ΔTm WNK1: 0.0 °C
CLK3
  ΔTm CLK3: 1.4 °C
MARK3
  ΔTm MARK3: 1.2 °C
DRAK2
  ΔTm DRAK2: 3.0 °C
EPHB1
  ΔTm EPHB1: 0.5 °C
BRAF
  ΔTm BRAF: 1.3 °C
MAPKAPK2
  ΔTm MAPKAPK2: -0.3 °C
MST4
  ΔTm MST4: -0.9 °C
EPHA4
  ΔTm EPHA4: 0.5 °C
CAMK2D
  ΔTm CAMK2D: 0.0 °C
RSK1_b
  ΔTm RSK1_b: 1.5 °C
CAMK1D
  ΔTm CAMK1D: 1.6 °C

## C[C@@H](O)Cn1cc(-c2c(Cl)cnc3[nH]ccc23)nn1
DYRK2
  ΔTm DYRK2: 4.7 °C
HIPK2
  ΔTm HIPK2: 1.1 °C
MAP2K1
  ΔTm MAP2K1: 0.2 °C
PAK1
  ΔTm PAK1: -0.9 °C
MYT1
  ΔTm MYT1: -0.6 °C
JNK2
  ΔTm JNK2: 0.3 °C
BIKE
  ΔTm BIKE: 8.8 °C
DCAMKL1
  ΔTm DCAMKL1: 0.0 °C
PHKg2
  ΔTm PHKg2: 0.9 °C
MRCKa
  ΔTm MRCKa: 0.1 °C
MAP3K5
  ΔTm MAP3K5: 7.1 °C
ABL1
  ΔTm ABL1: 1.7 °C
CDKL1
  ΔTm CDKL1: 0.5 °C
EPHA5
  ΔTm EPHA5: -0.6 °C
FGFR1
  ΔTm FGFR1: 1.4 °C
VRK1
  ΔTm VRK1: -0.4 °C
SLK
  ΔTm SLK: -0.9 °C
DRAK1
  ΔTm DRAK1: 2.9 °C
MAPK15
  ΔTm MAPK15: 3.0 °C
PLK4
  ΔTm PLK4: 3.5 °C
MSSK1
  ΔTm MSSK1: -0.1 °C
CHK2
  ΔTm CHK2: 2.2 °C
AURKB
  ΔTm AURKB: 5.8 °C
EPHB3
  ΔTm EPHB3: -1.6 °C
TIF1
  ΔTm TIF1: -0.5 °C
CASK
  ΔTm CASK: -0.5 °C
CAMK4
  ΔTm CAMK4: 0.1 °C
PIM3
  ΔTm PIM3: -0.4 °C
NQO2
  ΔTm NQO2: -0.7 °C
WNK1
  ΔTm WNK1: 0.3 °C
CLK3
  ΔTm CLK3: 0.9 °C
MARK3
  ΔTm MARK3: 2.6 °C
DRAK2
  ΔTm DRAK2: 1.8 °C
EPHB1
  ΔTm EPHB1: 0.3 °C
BRAF
  ΔTm BRAF: 1.1 °C
MAPKAPK2
  ΔTm MAPKAPK2: 0.1 °C
MST4
  ΔTm MST4: -0.9 °C
EPHA4
  ΔTm EPHA4: 0.5 °C
CAMK2D
  ΔTm CAMK2D: -0.5 °C
RSK1_b
  ΔTm RSK1_b: 1.0 °C
CAMK1D
  ΔTm CAMK1D: 0.9 °C
